Reference: paper PMC11997881, “Comprehensive Characterization of Bruton’s Tyrosine Kinase Inhibitor Specificity, Potency, and Biological Effects: Insights into Covalent and Noncovalent Mechanistic Signatures” (ACS Pharmacology & Translational Science, 2025)
Read-outs that look alike come from different tables or passages of the source.

By UniProt entry, the sequences of proteins in these tests, tags left out.
UniProt Q06187, whole entry C481S: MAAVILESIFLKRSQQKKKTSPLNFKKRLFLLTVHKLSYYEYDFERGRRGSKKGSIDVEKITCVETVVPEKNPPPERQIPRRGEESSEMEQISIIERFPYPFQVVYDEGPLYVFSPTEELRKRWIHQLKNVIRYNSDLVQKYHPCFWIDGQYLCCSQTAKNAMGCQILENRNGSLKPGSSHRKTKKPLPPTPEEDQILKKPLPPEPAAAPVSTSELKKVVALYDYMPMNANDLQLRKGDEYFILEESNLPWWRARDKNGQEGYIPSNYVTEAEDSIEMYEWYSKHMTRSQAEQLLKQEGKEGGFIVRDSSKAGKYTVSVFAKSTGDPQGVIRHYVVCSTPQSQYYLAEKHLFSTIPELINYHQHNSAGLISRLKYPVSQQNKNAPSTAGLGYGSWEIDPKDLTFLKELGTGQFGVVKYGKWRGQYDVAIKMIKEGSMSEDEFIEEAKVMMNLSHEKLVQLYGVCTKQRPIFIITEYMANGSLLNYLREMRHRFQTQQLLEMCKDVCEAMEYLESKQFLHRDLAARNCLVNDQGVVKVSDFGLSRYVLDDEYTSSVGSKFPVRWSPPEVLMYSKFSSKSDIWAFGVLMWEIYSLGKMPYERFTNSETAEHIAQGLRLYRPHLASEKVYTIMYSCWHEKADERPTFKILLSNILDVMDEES

Key:
BTK [1] = biological target: T1, BTK (Homo sapiens, UniProt Q06187); test: scanMAX binding POC, BTK; settings: 1 μM; zero POC = competition comparable to positive control
T1 construct: host or cells: transiently transfected HEK293 cells

BTK C481S [2] = biological target: T2, BTK C481S (Homo sapiens, UniProt Q06187, C481S); test: KdELECT competition binding, mutant BTK C481S
T2 construct: made in house; host or cells: transiently transfected HEK293 cells (unpurified extract)

BTK C481S [3] = settings: average of literature values; read-out: average published Kd for BTK C481S; cited from earlier work
wild-type BTK = biological target: T3, wild-type BTK (Homo sapiens, UniProt Q06187); test: KdELECT competition binding, wild-type BTK
T3 construct: made in house; host or cells: transiently transfected HEK293 cells (unpurified extract)

BTK [4] = settings: wild-type BTK; average of literature values; read-out: average published Kd for BTK; cited from earlier work
[5] = ATP-independent in vitro binding, 25 °C, read-out: Kd for BTK C481S
[6] = N = 1, technical duplicate, read-out: average in-house Kd for BTK C481S
[7] = category by Kd for BTK C481S, read-out: potency for BTK C481S
[8] = ATP-independent in vitro binding, 25 °C, read-out: Kd for wild-type BTK
[9] = category by Kd for wild-type BTK, read-out: potency for BTK
[10] = wild-type BTK, average of N replicates, each in technical duplicate, read-out: average in-house Kd for BTK

Row | BTK binding POC (BTK [1]) | Kd (BTK C481S [2]; [5]) [nM] | Kd (BTK C481S [2]; [6]) [nM] | Kd (BTK C481S [2]; [7]) [nM] | Kd (wild-type BTK; [8]) [nM] | Kd (wild-type BTK; [9]) [nM] | Kd (wild-type BTK; [10]) [nM] | Structure (SMILES) | Kd (BTK C481S [3]) [nM] | Kd (BTK [4]) [nM] | Kd for BTK C481S (BTK C481S [2]; ATP-independent in vitro binding, 25 °C)
1 | 0% of control | 0.17 | 0.17 | < 1 | 1.5 | 1 to 10 | 1.5 | C[C@H]1CN(C2COC2)CCN1c1ccc(Nc2cc(-c3ccnc(N4CCn5c(cc6c5CC(C)(C)C6)C4=O)c3CO)cn(C)c2=O)nc1 [Fenebrutinib] | 5.1 | 0.2 | 
2 |  | > 1000 | > 1000 | > 1000 | 2.3 | 1 to 10 | 2.3 | C=CC(=O)Nc1cccc(Nc2nc(Nc3ccc(OCCOC)cc3)ncc2F)c1 [Spebrutinib] |  |  | did not demonstrate any binding at the concentrations tested
